# Yeast mating assay B: variants of the scFv Ab-14

Source: Li et al. 2023 (doi:10.1038/s41467-023-39022-2), MIT Lincoln Laboratory and A-Alpha Bio; data file from the FLAb repository.

Target peptide (SARS-CoV-2 spike, HR2 region): PDVDLGDISGINAS

The variants keep the light chain, the linker and the frameworks of Ab-14 (scFv order VH, three GGGGS repeats, VL).
VH: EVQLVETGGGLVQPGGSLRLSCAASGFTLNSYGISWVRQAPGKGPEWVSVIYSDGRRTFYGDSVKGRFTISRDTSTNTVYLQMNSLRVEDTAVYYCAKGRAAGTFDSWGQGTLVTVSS
VL: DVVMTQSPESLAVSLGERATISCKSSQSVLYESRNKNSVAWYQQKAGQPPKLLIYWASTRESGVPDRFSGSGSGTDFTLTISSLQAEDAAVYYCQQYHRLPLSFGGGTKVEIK

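The starting antibody came from a phage panning campaign against this peptide. These sequences belong to a second round, designed from the earlier measurements on random variants of the parent. Their group label is 14H_En_Gen (En: ensemble of fine-tuned language models; Gen: genetic algorithm). In AlphaSeq, yeast of one mating type display the scFv and yeast of the other type display the target. Pairs that bind mate more often; barcode pairs of the diploids are counted by sequencing. The ratio of observed to expected reads was calibrated, replicate by replicate, on BCL2-family standards whose Kd was known from biolayer interferometry. There are six technical replicates.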

Variants are written as CDR1, CDR2 and CDR3 of the heavy chain (limits as in the source). Parent: GFTLNSYGIS, VIYSDGRRTFYGDSVK, GRAAGTFDS.
Scale: log10 of Kd in nM, estimated from mating counts; low values are strong binders.
Averages over replicates are reported, and they cover detected replicates only.
Where no diploid with the target was found in that replicate, the entry reads "nd": below detection, most likely a poor binder, though not proof of it.
The authors averaged sequences with at least three values out of six and counted those with two or fewer as poor binders.

CDR-H1,CDR-H2,CDR-H3,log10 Kd (nM) by replicate,mean log10 Kd (nM),control signals
GFDLNEYGIS,VIYADGMRTAYADSVK,GNSAGTFDI,0.09 -0.57 -0.25 -0.60 -0.86 -0.14,-0.39,0 of 18
GFDLNEYGIS,VIYADGRRKAYADSVK,GENAGTFDV,0.68 1.09 -0.61 -0.37 -0.28 0.60,0.19,0 of 18
GFDLNEYGIS,VIYADGRRTAYSDSVK,GEVAGTFDV,-0.27 -0.43 -0.09 -0.69 -0.59 -0.44,-0.42,0 of 18
GFDLNEYGIS,VIYADGQRTSYADSVK,GNQAGTFDV,-0.38 0.01 -0.20 0.08 -0.01 -0.40,-0.15,0 of 18
GFDLNEYGIS,VIYADGMRTQYADDVK,GNNAGTFDV,nd 0.26 0.86 0.84 0.85 1.51,0.87,1 of 18 (4.14)
GFDLNEYGIS,VIYADGMRTAYKDSVK,GNNAGTFDV,-0.09 0.11 -1.05 -0.65 -0.99 -0.84,-0.58,0 of 18
GFDLNEYGIS,VIYADGQRTAYADDVK,GNNAGTFDV,-0.14 -0.82 -0.91 -0.84 -1.00 -0.66,-0.73,0 of 18
GFDLDEYGIS,VIYADGQRTAYADSVK,GNVAGTFDL,0.45 -0.11 -0.36 0.05 0.04 -0.33,-0.04,0 of 18
GFDLDEYGIS,VIYADGKRTAYADKVK,GENAGTFDV,nd nd nd nd nd nd,nd,0 of 18
GFDLNEYGIS,VIYADGVRTAYSDSVK,GNEAGTFDL,-0.13 -0.09 -0.46 -0.32 -0.29 -0.04,-0.22,0 of 18
GFDLNEYGIS,VIYADGQRTAYADSVK,GEVAGTFDE,-0.35 -0.25 -0.37 -0.26 -0.38 -0.12,-0.29,1 of 18 (2.34)
GFDLNEYGIS,VIYADGMRTAYADNVK,GENAGTFDI,0.12 -0.25 -0.34 -0.44 -0.15 0.01,-0.18,1 of 18 (1.62)
GFDLNEYGIS,VIYADGKRTAYADSVK,GNEAGTFDM,-0.26 -0.28 -0.52 -0.48 -0.54 -0.01,-0.35,0 of 18
GFDLDEYGIS,VIYADGQRTAYADDVK,GNVAGTFDV,-0.67 -0.71 -0.95 -0.67 -0.96 -0.53,-0.75,0 of 18
GFDLDEYGIS,VIYADGMRTVYADSVK,GNVAGTFDV,0.54 0.33 0.14 0.58 0.42 0.29,0.38,0 of 18
GFDLNEYGIS,VIYADGQRTAYADSVK,GQNAGTFDQ,nd nd nd nd nd nd,nd,0 of 18
GFDLNEYGIS,VIYADGQRTAYADKVK,GEVAGTFDV,-0.13 -0.56 -0.36 -0.75 -0.44 -0.26,-0.42,0 of 18
GFDLDEYGIS,VIYADGQRKAYADSVK,GNVAGTFDL,0.23 -0.17 -0.36 -0.31 -0.62 0.22,-0.17,0 of 18
GFDLNEYGIS,VIYADGVRKAYADSVK,GNVAGTFDT,-0.25 -0.42 -0.81 -0.95 -0.31 -0.30,-0.51,0 of 18
GFDLDEYGIS,VIYADGRRTAYADSVK,GNNAGTFDM,0.25 -0.02 0.03 -0.20 -0.28 -0.12,-0.06,0 of 18
GFDLNEYGIS,VIYADGMRTAYIDSVK,GEVAGTFDL,-0.22 -0.05 -0.51 -0.58 -0.44 -0.09,-0.31,0 of 18
GFDLDEYGIS,VIYADGVRTSYADSVK,GNVAGTFDV,nd nd nd nd nd nd,nd,0 of 18
GFDLDEYGIS,VIYADGMRTAYSDSVK,GSNAGTFDL,0.04 -0.63 -0.22 -0.21 -0.38 -0.38,-0.30,0 of 18
GFDLNEYGIS,VIYADGKRTAYADSVK,GTNAGTFDM,-0.16 -0.21 -0.08 -0.21 -0.07 -0.10,-0.14,0 of 18
GFDLDEYGIS,VIYADGMRTAYTDSVK,GETAGTFDV,0.62 nd nd 0.50 -0.10 -0.20,0.20,0 of 18
GFDLNEYGIS,VIYADGMRTFYADSVK,GQNAGTFDM,-0.39 -0.29 -0.39 -0.65 -0.69 -0.25,-0.44,1 of 18 (4.48)
GFDLDEYGIS,VIYADGKRTFYADSVK,GNVAGTFDT,-0.95 -0.46 -1.35 -1.18 -0.88 -0.85,-0.94,0 of 18
GFDLDEYGIS,VIYADGMRTAYADDVK,GETAGTFDT,-0.91 -0.31 -0.58 -1.15 -0.19 -0.04,-0.53,0 of 18
GFDLDEYGIS,VIYADGQRTAYADSVK,GANAGTFDV,0.01 -0.38 -0.74 -0.46 -0.71 -0.51,-0.46,0 of 18
GFDLDEYGIS,VIYADGMRTFYADDVK,GNNAGTFDV,-0.04 -0.56 -0.44 0.26 -0.26 1.09,0.01,0 of 18
GFDLNEYGIS,VIYADGVRTAYTDSVK,GTNAGTFDV,-0.42 -0.53 -0.22 -0.38 -0.36 -0.11,-0.34,0 of 18
GFDLNEYGIS,VIYADGQRTAYADSVK,GNVAGTFDT,0.06 2.15 0.10 -0.55 -0.01 0.81,0.43,0 of 18
GFDLDEYGIS,VIYADGRRTAYADSVK,GQNAGTFDV,-0.47 -0.51 -0.75 -0.84 -0.81 -0.32,-0.62,0 of 18

Extract of 2 entries:

CDR-H1	CDR-H2	CDR-H3	log10 Kd (nM) by replicate	mean log10 Kd (nM)	control signals
GFDLNEYGIS	VIYADGKRTAYADSVK	GNEAGTFDM	-0.26 -0.28 -0.52 -0.48 -0.54 -0.01	-0.35	0 of 18
GFDLNEYGIS	VIYADGQRTAYADSVK	GNVAGTFDT	0.06 2.15 0.10 -0.55 -0.01 0.81	0.43	0 of 18

Background: pairings of all heavy chain designs with three empty control strains gave a value in 1% of cases (median 2.08, 5th percentile 0.84). Values in that range, when seen in few replicates, are hard to tell from nonspecific mating. For each scFv, signals with the empty controls are counted beside the result, with their mean in brackets.
The range of this assay differs from that of the first round, and the authors advise against merging the two.